Screening data deposited in PubChem by ICCB-Longwood Screening Facility, Harvard Medical School.
HCMV UL50-53 inh: cytomegalovirus nuclear egress complex inhibition; HTRF UL50-UL53 interaction, normalized percent inhibition; inhibition, % (no concentration beside the values); 190,000 tested, 0.15% active; in the data active means inhibition above about 27%, passing the limit was not always enough
GIV Gai3 FP: inhibitors of GIV peptide binding to Galpha-i3, primary screen, biochemical, fluorescence polarization, FITC-GIV GBA peptide, rat Galphai3 | 90 min; hits give low values; scaled: aluminum fluoride 0%, vehicle 100% | percent of control (FP), % (concentration not given with the values) | 210,000 compounds, 0.42% hits | AID 1224905, 2016;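 active = replicate mean at 85% of control or lower, very high polarization wells dropped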;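 also: wells of about 15 µL received 100 nL stock; the first replicate is given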
GIV-Gai FP conf: confirmation of inhibitors of GIV binding to rat Galpha-i3 | shares compounds with GIV Gai3 FP | FITC-GIV peptide binding to Galphai3, fluorescence polarization; stronger effect = lower value | fluorescence polarization, mP at 100 µM | 580 tested, 38% active | AID 1259350;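 active means inhibition score of 15 or more, meaning 100 minus mean polarization as percent of control over three replicates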
GIV Gai AS conf: GIV-Galpha-i3 inhibition, AlphaScreen confirmation; AlphaScreen Galphai3-GIV binding, purified proteins, 90 min; stronger effect = lower value; 580 tested, 39% active; shares compounds with GIV Gai3 FP; AlphaScreen counts at 100 µM;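 active means inhibition score at or above a set limit, where the score is 100 minus the three-replicate mean percent of control signal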
Hits are given with their value. This is a sample that favours compounds with a hit; in the whole collection about 0.43% have one here.

`CCCCn1nnnc1NC(=O)NC1CCN(Cc2ccncc2)CC1` gave HCMV UL50-53 inh inactive.
`CCOC(=O)c1c(-c2ccccc2)c[nH]c1N` gave HCMV UL50-53 inh inactive, GIV Gai3 FP 59.8, GIV-Gai FP conf 38.6 and GIV Gai AS conf 19838.
CCOC(=O)c1c(-c2ccccc2)cn2ccccc12 was read as HCMV UL50-53 inh inactive and GIV Gai3 FP inactive.
CCc1nnsc1C(=O)O was read as HCMV UL50-53 inh inactive and GIV Gai3 FP inactive.
CCCn1c(Sc2nnnn2-c2ccccc2)nc2ccccc2c1=O was read as HCMV UL50-53 inh inactive.
For COC(=O)C1=C(c2ccccc2)Nc2ncnn2C1c1ccccc1F (stereo not drawn) the results were HCMV UL50-53 inh inactive and GIV Gai3 FP inactive.
Screening CCOC(=O)c1c(C)oc2c1c(O)c(N=O)c1ccccc12 returned HCMV UL50-53 inh inactive, GIV Gai3 FP 42.0, GIV-Gai FP conf 47.5 and GIV Gai AS conf inactive.
Screening CCOC(=O)c1c(C)oc2c1c(C=NC(C)c1ccccc1)c(O)c1ccccc12 (stereo not drawn) returned GIV Gai3 FP inactive.
NC(=O)C1(N2CCCCC2)CCN(C(=O)c2cc3ccc4cccnc4c3[nH]2)CC1 was read as HCMV UL50-53 inh inactive and GIV Gai3 FP inactive.
CCOC(=O)c1nc2ccccc2nc1NCc1ccc2c(c1)OCO2 was read as HCMV UL50-53 inh inactive, GIV Gai3 FP inactive, GIV-Gai FP conf inactive and GIV Gai AS conf inactive.
For CCOC(=O)CSc1nc(NCc2ccc3c(c2)OCO3)c2ccccc2n1 the results were GIV Gai3 FP inactive.
`O=C(O)c1cc(NS(=O)(=O)c2ccc3c(c2)CCCC3)ccc1N1CCN(C2CCCCC2)CC1` gave HCMV UL50-53 inh inactive and GIV Gai3 FP inactive.
Screening CC(C)(C)c1ccc(S(=O)(=O)Nc2cnc(N3CCNCC3)c(C(=O)N3CCCC3)c2)cc1 returned GIV Gai3 FP inactive.
Screening O=C(O)c1cc(NS(=O)(=O)c2ccc3c(c2)CCCC3)cnc1N1CCC(N2CCCCC2)CC1 returned HCMV UL50-53 inh inactive, GIV Gai3 FP 80.3, GIV-Gai FP conf 49.8 and GIV Gai AS conf inactive.
O=C(O)c1cc(NS(=O)(=O)c2ccc(F)cc2)cnc1N1CCCC1 was read as HCMV UL50-53 inh inactive, GIV Gai3 FP 77.1, GIV-Gai FP conf 46.9 and GIV Gai AS conf 18634.
For CC(C)(CO)N1Cc2ccccc2C1=O the results were HCMV UL50-53 inh inactive and GIV Gai3 FP inactive.
CC(C)CCN1C(=O)N(CCN(C)C)C(=O)C12CCN(Cc1cn(C)c3ccccc13)CC2 was read as HCMV UL50-53 inh inactive.
For O=C(NC1(O)C(=O)c2ccccc2C1=O)c1ccccc1 the results were GIV Gai3 FP 52.3, GIV-Gai FP conf 46.7 and GIV Gai AS conf inactive.
Screening COc1ccccc1C(=O)ON1C(=O)c2ccccc2C1=O returned HCMV UL50-53 inh inactive and GIV Gai3 FP inactive.
For COc1cscc1C(=O)NC1(O)C(=O)c2ccccc2C1=O the results were HCMV UL50-53 inh 53.2, GIV Gai3 FP 63.9, GIV-Gai FP conf inactive and GIV Gai AS conf inactive.
Screening O=C(NN1C(=O)c2ccccc2C1=O)c1ccccc1 returned HCMV UL50-53 inh inactive.
CCn1c(=O)c(=O)[nH]c2cc(C(=O)Nc3cc(Cl)c(N)c(Cl)c3)ccc21 was read as HCMV UL50-53 inh inactive.
Cc1ccc2c(c1)c1c(n2C)C(C#N)CCC1 (stereo not drawn) was read as HCMV UL50-53 inh inactive and GIV Gai3 FP inactive.
For Cc1ccc2c(c1)c1c3c(nccn32)CCC1 the results were HCMV UL50-53 inh inactive, GIV Gai3 FP 76.5, GIV-Gai FP conf 60.6 and GIV Gai AS conf inactive.
Screening Cc1cc2c3c(C)n(Cc4ccccc4)c(C)c3c(C)nn2c1 returned GIV Gai3 FP inactive.
Screening CCOc1cc(/C=C2\SC(=S)NC2=O)cc(Cl)c1OC(=O)c1ccc(OC)cc1 returned GIV Gai3 FP inactive.
Screening CCOc1cc(C=C2C(=O)NC(=O)NC2=O)cc(Cl)c1OC(=O)c1ccc(OC)cc1 returned HCMV UL50-53 inh 49.1, GIV Gai3 FP 75.2, GIV-Gai FP conf inactive and GIV Gai AS conf inactive.
`O=C(c1nn2c(C(F)(F)F)cc(-c3ccco3)nc2c1Cl)N1CCN(Cc2ccccc2)CC1` gave HCMV UL50-53 inh inactive and GIV Gai3 FP inactive.
`COc1ccc(-c2nc(-c3ccc4c(c3)[nH]c(=O)c(=O)n4C)no2)cc1OC` gave HCMV UL50-53 inh inactive, GIV Gai3 FP inactive, GIV-Gai FP conf inactive and GIV Gai AS conf inactive.
`COc1ccc(-c2nc(-c3ccc4c(c3)[nH]c(=O)c(=O)n4C)no2)cc1` gave HCMV UL50-53 inh inactive and GIV Gai3 FP inactive.
CCOC(=O)/C(C#N)=C/c1ccc(-c2ccc(Br)cc2)o1 was read as HCMV UL50-53 inh inactive and GIV Gai3 FP inactive.
For CCOC(=O)/C(C#N)=C/c1ccc(-c2ccc(Cl)c(C(=O)OC)c2)o1 the results were HCMV UL50-53 inh inactive, GIV Gai3 FP 64.6, GIV-Gai FP conf inactive and GIV Gai AS conf inactive.
CCCCOc1ccc(NC(=O)c2cc(=O)c3cc(CC)ccc3o2)c2cccnc12 was read as HCMV UL50-53 inh inactive and GIV Gai3 FP inactive.
O=C1C(=O)N(C2CCN(S(=O)(=O)c3cccc(Cl)c3)CC2)CCN1Cc1cccc(F)c1 was read as HCMV UL50-53 inh inactive and GIV Gai3 FP inactive.
Cn1nc(-c2ccc(C=N/C(C#N)=C(\N)C#N)s2)cc1C(F)(F)F was read as HCMV UL50-53 inh inactive and GIV Gai3 FP inactive.
For N#Cc1c(/N=C/c2ccccc2)oc(-c2ccccc2)c1-c1ccccc1 the results were GIV Gai3 FP inactive.
Screening N#Cc1c(/N=C/c2ccc(Cl)c(Cl)c2)oc(-c2ccccc2)c1-c1ccccc1 returned GIV Gai3 FP 73.0, GIV-Gai FP conf 11.6 and GIV Gai AS conf inactive.
For CN1C(=O)NC2(O)C(=O)c3ccccc3C12O (stereo not drawn) the results were GIV Gai3 FP inactive.
`CCCN1C(=O)NC2(O)C(=O)c3ccccc3C12O` (stereo not drawn) gave GIV Gai3 FP 76.8, GIV-Gai FP conf inactive and GIV Gai AS conf inactive.
For Cc1cccn2c(=O)c(C=C(C#N)C#N)c(N3CCCC3)nc12 the results were HCMV UL50-53 inh inactive.
Screening COC(=O)c1c(N)c(C#N)c2n1CCC2 returned GIV Gai3 FP 80.1, GIV-Gai FP conf 49 and GIV Gai AS conf 20250.
Screening COC(=O)c1c(N)c(C#N)c2n1CCCC2 returned HCMV UL50-53 inh inactive and GIV Gai3 FP inactive.
For O=C(NC(Cc1c[nH]c2ccccc12)C(=O)O)c1ccccc1Cl (stereo not drawn) the results were HCMV UL50-53 inh inactive.
`Cc1ccc(-c2nc3nc(C)cc(N4CCN(c5cccc(C)c5)C(C)C4)n3n2)cc1` (stereo not drawn) gave HCMV UL50-53 inh inactive, GIV Gai3 FP 73.5, GIV-Gai FP conf inactive and GIV Gai AS conf inactive.
For Cc1cccc(-c2nc3nc(C)cc(N4CCN(c5ccccc5)CC4)n3n2)c1 the results were HCMV UL50-53 inh inactive and GIV Gai3 FP inactive.
For COC(=O)c1cc(S(=O)(=O)C(C)C)cs1 the results were HCMV UL50-53 inh inactive and GIV Gai3 FP inactive.
Screening O=C(CSc1nc(-c2ccccc2)cc(-c2ccccc2)n1)NCc1ccco1 returned GIV Gai3 FP inactive.
